Experimental data: ChEMBL document CHEMBL6083214, “Synthesis, biochemical screening and in-silico investigations of arylsulfonamides bearing linear and cyclic tails” (Bioorg Med Chem Lett, 2024)

What was measured:
[1] = tested on: MCF7; assay: cells; details: Homo sapiens, MCF7, read-out: INH
[2] = tested on: HCT-116; assay: cells; details: Homo sapiens, HCT-116, read-out: INH

## N#Cc1cccc(/C=N/c2ccc(S(N)(=O)=O)cc2)c1
[1]
  inhibition at 10 µM: 14.9%
[2]
  inhibition at 10 µM: 46.9%
